System: seasonal allergic rhinitis patients
Experiment: Double-blinded, randomized clinical trials in seasonal allergic rhinitis patients
Conditions: 5 mg

Clc1ccc2c(c1)CCc1cccnc1C2=C1CCNCC1 [Desloratadine, desloratadine]
Reduction of nasal symptoms versus placebo: significantly (p<0.01) more effective than placebo
